{"source": "patent US9802888B2", "about": "“STAT3 inhibitors” (UNIVERSITY OF HAWAII, priority 2013, dated 2017)", "tested_on": "human breast tumor (MDA-MB-231) xenografts", "conditions": "oral gavage, 3 mg/kg every day"}
{"smiles": "CN(CC(=O)N(Cc1ccc(C2CCCCC2)cc1)c1ccc(C(=O)NO)cc1)S(=O)(=O)c1c(F)c(F)c(F)c(F)c1F", "note": "[SH5-07]", "values": [{"measurement": "growth of human breast tumor (MDA-MB-231) xenografts", "result": "inhibited the growth"}]}
